## Yeast mating assay 2: variants of the scFv Ab-91

Target: peptide PDVDLGDISGINAS, taken from heptad repeat 2 (HR2) of SARS-CoV-2 spike.

The variants keep the light chain, the linker and the frameworks of Ab-91 (scFv order VL, a (GGGGS)3 linker, VH).
VL: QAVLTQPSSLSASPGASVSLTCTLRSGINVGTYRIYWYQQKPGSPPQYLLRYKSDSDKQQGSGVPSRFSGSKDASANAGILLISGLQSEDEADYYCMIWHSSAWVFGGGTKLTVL
VH: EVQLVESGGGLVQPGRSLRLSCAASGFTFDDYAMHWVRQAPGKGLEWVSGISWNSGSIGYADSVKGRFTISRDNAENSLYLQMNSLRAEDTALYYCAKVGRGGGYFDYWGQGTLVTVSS

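Phage display of a naive human antibody library on the peptide gave the parent. The library (AAYL51) carries one to three amino acid substitutions per variant, with no insertions or deletions. The assay is AlphaSeq: two haploid yeast populations carry antibody and antigen on their surface. Mating (16 h, 30 °C) was followed by selection of diploids and sequencing of their barcodes. The ratio of observed to expected reads was calibrated, replicate by replicate, on BCL2-family standards whose Kd was known from biolayer interferometry. Mating was done three times.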

The parent's heavy chain CDRs are GFTFDDYAMH, GISWNSGSIGYADSVK, VGRGGGYFDY; each variant's own CDRs replace them letter for letter. This list gathers variants with a substitution at F27 (VH, numbered from residue 1). Kd is apparent (estimated from mating counts) and averaged on the log scale over replicates with a signal. Smaller is tighter. A pair that was not seen in any replicate is written "nd"; this usually means weak binding, but a binder can also be missed. Background: pairings of library AAYL51 with three empty control strains gave a value in 21% of cases (median 34 µM, 5th percentile 1.8 µM). Values in that range, when seen in few replicates, are hard to tell from nonspecific mating.

With GTTRDDYAMH / GISWNSGSIGYADSVK / VGRGDGYFDY the result was 46 µM (2 of 3 replicates).
With GCTDDDYAMH / GIYWNSGSIGYADSVK / VGRGGGYFDY the result was 110 µM (3 of 3 replicates).
With GDTFDDYAMH / GISWNSGSITYADSVK / VGRGGGIFDY the result was nd (0 of 3 replicates).
With GVTFDDYAMH / GISWNSGSIGYADSVK / VGRGGGYFWC the result was 7.3 nM (3 of 3 replicates).
With GHTFDDSAMH / GISWNSGSIGYADSVK / CGRGGGYFDY the result was 54 µM (2 of 3 replicates).
With GMTFDDVAMH / GISWNSGSIGYADSVK / VGRAGGYFDY the result was nd (0 of 3 replicates).
With GATFNDYAMH / GISWNSGSIGYADSVK / VGRGGGYFDT the result was nd (0 of 3 replicates).
With GLTFDDYAMH / GASWNSGSIGYADGVK / VGRGGGYFDY the result was nd (0 of 3 replicates).
With GLTFDDYAMH / GISWNSGSIGHADSVK / VNRGGGYFDY the result was nd (0 of 3 replicates).
With GLTFDDYAMH / GISWWFGSIGYADSVK / VGRGGGYFDY the result was 7.5 µM (1 of 3 replicates).
With GKTFDDYAMH / GISWNSGSIGYADSVK / VGREGNYFDY the result was 920 µM (3 of 3 replicates).
With GSTFDDYAMH / GISWNSISIGYADSVK / VGRGGGYFDM the result was 15 µM (1 of 3 replicates).
With GQTFDDYAMH / GISWNDGSIGYADSVK / VGRGCGYFDY the result was nd (0 of 3 replicates).
With GMTFDDYAMH / GISWNSGSIGYADSVK / CGRGGGYYDY the result was 440 µM (2 of 3 replicates).
With GCTFDDYAWH / GISWNSGSIGYADSVK / VGRGGSYFDY the result was 38 µM (1 of 3 replicates).
With GPTFDQYAMH / IISWNSGSIGYADSVK / VGRGGGYFDY the result was nd (0 of 3 replicates).
With GPTFDDYAMH / GISWNSGSIGYADSVA / VGRGGGDFDY the result was nd (0 of 3 replicates).
With GTTFDDYAMH / GISWNSGSIGYNDSVK / VGRGGGAFDY the result was 120 µM (1 of 3 replicates).
With GRTFDDYAMH / GISWNSSSIGYADSVK / DGRGGGYFDY the result was nd (0 of 3 replicates).
With GKTFDDYAMD / GISWNSGSISYADSVK / VGRGGGYFDY the result was 1.1 mM (1 of 3 replicates).
With GPTFDDYAMH / GISWNSGSIGYADSVK / VGRGGGYFDY the result was 87 nM (3 of 3 replicates).
With GATFDDYAMH / GISWNSGSIGYADSVK / PGRFGGYFDY the result was 27 µM (2 of 3 replicates).
With GQTFDDYAMH / GISWNSGSIFYADSVD / VGRGGGYFDY the result was nd (0 of 3 replicates).
With GHTFDDYAMH / RISWNSGSIGYADSVK / VGRGGGYFDY the result was nd (0 of 3 replicates).
With GITFDDYAMH / GISWNSGSIGYADSVK / VGRGGGDFDY the result was nd (0 of 3 replicates).
With GTTFDDYAMH / GISWNSHNIGYADSVK / VGRGGGYFDY the result was nd (0 of 3 replicates).
With GDTFDDYRMH / GISWNSGSIGYAFSVK / VGRGGGYFDY the result was nd (0 of 3 replicates).
With GETFDDYAMH / GISWNSGSIGYADSVK / VGRGGGYFDY the result was 42 nM (3 of 3 replicates).
With GSTFDDYAMH / GISWNSGSIGYADSVK / VGNGGGYIDY the result was nd (0 of 3 replicates).
With GKTFDDYAMH / GISWNSGSIAYADSVK / VGRGGGYFDY the result was 2.3 µM (1 of 3 replicates).
With GETFDDYAMH / GISWNTGSIGYADSVK / VGREGGYFDY the result was 76 µM (2 of 3 replicates).
With GETFDDYAMH / GHSWNSGSIGYADSVK / VGRGGIYFDY the result was nd (0 of 3 replicates).

Again, the first 3 entries without any signal:

For GDTFDDYAMH / GISWNSGSITYADSVK / VGRGGGIFDY, the assay gave nd (0 of 3 replicates).
For GMTFDDVAMH / GISWNSGSIGYADSVK / VGRAGGYFDY, the assay gave nd (0 of 3 replicates).
For GATFNDYAMH / GISWNSGSIGYADSVK / VGRGGGYFDT, the assay gave nd (0 of 3 replicates).

For reference, the parent read 72 nM as the reference entry and 7.5 nM as a member of this library.

From the AlphaSeq antibody data of Engelhart et al. 2022 (doi:10.1038/s41597-022-01779-4), copy in the FLAb collection.